Data taken from ChEMBL document CHEMBL5257137, “Inhibition of Thiamine Diphosphate-Dependent Enzymes by Triazole-Based Thiamine Analogues” (ACS Med Chem Lett, 2023).

Columns and labels:
[1] = biological target: T1, Pyruvate dehydrogenase E1 component subunit alpha, somatic form, mitochondrial (Sus scrofa) (UniProt P29804); assay: Ratio of Km for ThDP substrate activity at porcine PDHc E1-subunit to Ki for inhibition of porcine PDHc E1-subunit assessed as inhibition constant preincubated for 30 mins followed by pyruvate addition using 10 uM ThDP as substrate by microplate reader analysis
T1 sequence (whole entry): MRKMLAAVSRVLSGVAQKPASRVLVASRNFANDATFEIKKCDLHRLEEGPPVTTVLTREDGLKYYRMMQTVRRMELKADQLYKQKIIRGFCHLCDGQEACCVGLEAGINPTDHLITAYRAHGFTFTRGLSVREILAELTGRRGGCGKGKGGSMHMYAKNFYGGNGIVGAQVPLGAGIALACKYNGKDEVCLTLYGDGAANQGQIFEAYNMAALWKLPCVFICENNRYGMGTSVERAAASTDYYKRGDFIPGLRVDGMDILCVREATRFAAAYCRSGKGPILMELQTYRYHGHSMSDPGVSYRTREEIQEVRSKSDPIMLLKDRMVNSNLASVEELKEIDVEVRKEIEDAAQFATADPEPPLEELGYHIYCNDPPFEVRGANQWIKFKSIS

Escherichia coli = assay: Ratio of Km for ThDP substrate activity at Escherichia coli OGDHc E1 to Ki for inhibition of Escherichia coli OGDHc E1 subunit assessed as inhibition constant preincubated for 60 mins followed by alpha-ketoglutarate addition using 30 uM ThDP as substrate by microplate reader analysis
Aerococcus viridans = assay: Ratio of Km for ThDP substrate activity at Aerococcus viridans pyruvate oxidase to Ki for inhibition of Aerococcus viridans pyruvate oxidase assessed as inhibition constant preincubated for 30 mins followed by pyruvate addition using 50 uM ThDP as substrate by microplate reader analysis
Zymomonas mobilis = assay: Ratio of Km for ThDP substrate activity at Zymomonas mobilis pyruvate decarboxylase to Ki for inhibition of Zymomonas mobilis pyruvate decarboxylase assessed as inhibition constant preincubated for 60 mins followed by pyruvate addition using 10 uM ThDP as substrate by microplate reader analysis

COc1ccc(-c2cn(CCCCc3cn(Cc4cnc(C)nc4N)nn3)nn2)cc1
Ratio [1]: 1.67

Cc1ncc(Cn2cc(CCCC(=O)NO)nn2)c(N)n1
Ratio (Escherichia coli): 1.49
Ratio (Aerococcus viridans): 0.25
Ratio [1]: 1.11
Ratio (Zymomonas mobilis): 0.51

Cc1ncc(Cn2cc(CCCCC(=O)NO)nn2)c(N)n1
Ratio (Escherichia coli): 2.05
Ratio (Aerococcus viridans): 0.22
Ratio [1]: 0.5
Ratio (Zymomonas mobilis): 0.4
